# Results taken from article PMC5134833, “The amyloid-beta forming tripeptide cleavage mechanism of γ-secretase” (eLife, 2016).
# Biological target: γ-secretase complex containing presenilin-1 (human) (UniProt P49768)
substance,measurement,value
VIV tripeptide (APP product tripeptide fragment),IC50 of inhibition of γ-secretase activity in vitro (cleavage of C100-FLAG),150 µM
